Test system: SSTR2 N276A and F294A mutants
Settings: N276A or F294A, 9 min administration

Compound: C[C@@H](O)[C@@H]1NC(=O)[C@H](CCCCN)NC(=O)[C@@H](Cc2c[nH]c3ccccc23)NC(=O)[C@H](Cc2ccccc2)NC(=O)[C@@H](NC(=O)[C@H](N)Cc2ccccc2)CSSC[C@@H](C(=O)N[C@H](CO)[C@@H](C)O)NC1=O [octreotide]
- FlAsH-BRET signal versus wild-type: decreased
